{"source": "paper PMC10819019", "about": "(Pharmaceutics, 2024)", "test": "Stability assay of DPP-4 inhibitors after incubation with cysteine (nonenzymatic)", "conditions": "100 μM inhibitor, L-cysteine 100 mM, potassium phosphate buffer pH 7.4, 37 °C, 2 h, no enzyme source"}
{"smiles": "N#C[C@@H]1CCCN1C(=O)CNC12CC3CC(CC(O)(C3)C1)C2", "note": "[Vildagliptin, vildagliptin]", "values": [{"measurement": "Stability in the presence of L-cysteine (peak area vs control without L-cysteine)", "result": "disappeared"}]}
